Results as given in article PMC4660513 (Pharmacognosy Research, 2015).

Test system: rat liver microsomes
Experiment: 4-MU glucuronidation inhibition assay in rat liver microsomes
Assay type: in vitro ADME
Conditions: comparison of IC50 values

Structure (SMILES): CNC1(c2ccccc2Cl)CCCCC1=O (stereo not shown) [Ketamine, Ketamine hydrochloride]
- potency relative to diclofenac: about three orders of magnitude more potent than diclofenac

Where a name gives a salt, the structure may show the parent alone.
